Ab-14 light chain CDR variants: yeast mating affinities

The measurements come from Li et al. 2023 (doi:10.1038/s41467-023-39022-2) through the FLAb antibody collection.

Target: peptide PDVDLGDISGINAS, taken from heptad repeat 2 (HR2) of SARS-CoV-2 spike.

Each scFv is VH, three GGGGS repeats, VL, as in the parent Ab-14, and differs from it in the CDRs of the light chain only.
VH: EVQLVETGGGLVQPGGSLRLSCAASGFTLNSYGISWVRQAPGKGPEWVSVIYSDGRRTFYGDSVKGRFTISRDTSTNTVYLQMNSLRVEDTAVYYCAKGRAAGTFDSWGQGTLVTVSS
VL: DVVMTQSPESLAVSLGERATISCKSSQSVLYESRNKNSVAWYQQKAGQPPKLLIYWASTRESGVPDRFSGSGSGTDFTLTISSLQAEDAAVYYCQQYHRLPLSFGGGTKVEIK

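The starting antibody came from a phage panning campaign against this peptide. This is the validation round: designs drawn from the data on random variants, tested in the same kind of assay. Group labels follow the data file (Ctrl: baseline library sampled from a position-specific scoring matrix, with some repeated check sequences; Rand: our label for a block that the file lists under HC and that is probably the random mutants of the ten best first-round binders; En: ensemble of fine-tuned language models; GP: Gaussian process model; HC: hill climbing; Gen: genetic algorithm; Gibbs: Gibbs sampling; a sequence that several methods proposed may carry one label only). The assay is AlphaSeq: two haploid yeast populations carry antibody and antigen on their surface. Pairs that bind mate more often; barcode pairs of the diploids are counted by sequencing. Scores were corrected for input abundance and mapped to Kd with protein pairs of known affinity run in the same pool. There are six technical replicates.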

The parent's light chain CDRs are KSSQSVLYESRNKNSVA, WASTRES, QQYHRLPLS; each variant's own CDRs replace them letter for letter.
Values are apparent Kd, the geometric mean of the replicates that gave a signal; lower means stronger binding.
A pair that was not seen in any replicate is written "nd"; this usually means weak binding, but a binder can also be missed.
Of ten entries with the parent sequence, four were seen in most replicates (averages 2.2 nM to 240 nM), three in one and three in none, so single entries are noisy.
Values of this round are not directly comparable with the first-round values of the same sequences.
The authors averaged sequences with at least three values out of six and counted those with two or fewer as poor binders.
Nonspecific signal, from three strains lacking the peptide, appeared in 4% of pairings of all light chain designs, centred on 430 nM (5% of these signals below 38 nM); values are not corrected for it.

| Kd | detected | CDR-L1 | CDR-L2 | CDR-L3 | group |
|---|---|---|---|---|---|
| 580 pM | 6/6 | KFSDSVLLESRTKNSVA | NASTRES | QQYHRLPLS | GP_HC |
| 1.9 nM | 6/6 | HLGGVTEYEMRNKNSVA | QMTTRES | QQYHRLPLS | En_HC |
| 1.0 nM | 6/6 | KLPQSTLYESRNKNSVA | NASQRES | QQYHRLPLS | GP_Gen |
| 750 pM | 6/6 | KMSQSMLYEQRAKNSVA | NASQRES | QQYHRLPLS | GP_Gibbs |
| 130 nM | 6/6 | KSSQSVINESFNTNSVA | WASTRES | QQYHRLPLS | Ctrl |
| 630 pM | 6/6 | KSSQVYLYESRNKNSVA | GASTREQ | QQYHRLPLS | GP_HC |
| 700 pM | 6/6 | KSSPSVLYESRNKNSVA | DASTREE | QQYHRLPLS | GP_Gibbs |
| 7.2 nM | 6/6 | NLSISMLHESINKHNVA | EVRTRES | QQYDRLPLS | En_HC |
| 1.5 nM | 6/6 | KVSQSELYESRNKNSVA | EASTRES | QSYHRLPLS | GP_Gen |
| 350 nM | 5/6 | KCSQSVLYESRNVNSVA | WASTRES | QQYHRLPLS | Ctrl |
| 1.6 nM | 6/6 | KLSGSMLYESRVKNNVA | DAHQRES | QMYHRLPLS | GP_Gibbs |
| nd | 0/6 | MSSQAVLNESRNKNSVA | WASTREA | QQYHRLPLS | Ctrl |
| 1.5 nM | 6/6 | GVDHTMYSAQEAPNSIA | NAEQSNI | QQYARLPLS | En_Gibbs |
| 2.1 nM | 6/6 | KSSQSDLYESRNGNNVA | NGSTRMD | QQYHRLPLS | GP_Gibbs |
| 2.4 nM | 6/6 | KLSWSNLYESRNCNSVA | NASTREE | QQYHRLPLS | GP_Gibbs |
| 64 nM | 6/6 | MISQLYNMGQFAINSVA | QASLRNE | QQYDRLPLT | En_Gen |
| 990 pM | 6/6 | HLSQSVLYESRNKNSVA | NASTRES | QQYHRLPLN | GP_HC |
| 8.3 nM | 6/6 | MLLQSTMYGERNRNSVA | HANTRED | QQYHRLPLI | En_HC |
| 42 nM | 6/6 | KSSCSEPYDSPNSNSVA | NASQRER | QQYHRLPLS | GP_Gibbs |
| nd | 0/6 | KIHCRELWYQGQINNIA | EAAKLVE | QQYALLPLA | En_Gibbs |
| 1.3 nM | 6/6 | KSSQSMLYESRNKNSVA | AASTRET | QQYHRLPLS | Ctrl |
| 32 nM | 6/6 | KISMMINMTFEQSNNVA | EMATREK | QQYNRLPLS | En_Gen |
| 5.7 nM | 6/6 | KLSQSVQYESRNKNSVA | NASTRES | QQYHRLPLS | GP_Gen |
| nd | 0/6 | KSSQSVLGESRNKTSVA | WASTRES | QQYHRLPLS | Ctrl |
| 470 pM | 6/6 | KVQQSQPYESRNKNSVA | NASTRES | QQYHRLPLS | GP_Gen |
| 24 nM | 6/6 | NMNVGANFGKEQEQAIA | DVEDRES | QQYARLPLT | En_Gibbs |
| 5.4 nM | 6/6 | KMPQSHLYESRNKNSVA | NASQRES | QQYHRLPLS | GP_Gen |
| 1.1 nM | 6/6 | SIYDATGMESRNKNPIA | DVSTRPQ | QQYHRLPLS | En_HC |
| 4.8 nM | 6/6 | LSSISYLYESPNKNSVA | EASTRCS | QQYHRLPLS | GP_HC |
| nd | 0/6 | KSSQSVLYESNNKNAVA | WASTRES | QQGHRLPLS | Ctrl |
| 1.5 nM | 6/6 | KISQSWGYESRNSNSVA | EASTRES | QDYHRLPLS | GP_Gibbs |
| 1.3 nM | 6/6 | KVSQSELYEERNKNSVA | NASQRES | QQYHRLPLS | GP_Gen |
| 1.5 nM | 6/6 | KSSQSFLYESRNKNSVA | GCSTRES | QQYHRLTLS | Rand |
| nd | 0/6 | KISQSVLYNSRNKNSVA | WASTRES | QQYHRKPLM | Ctrl |
| 2.8 nM | 6/6 | KLSQSTLYESRNKNSVA | HASTRCS | QQYHRLPLS | GP_Gen |
| 250 pM | 6/6 | KVSPSVLYEDRNWNSVA | QASQRNS | QQYHRLPLS | GP_Gibbs |
| 7.6 nM | 5/6 | KVSQSVLYEERNKNNVA | NASTRES | QQYHRLPLS | GP_Gen |
| 720 pM | 6/6 | KFSQSVLYESRTKNSVA | NASTRES | QQYHRLPSS | Rand |
| 65 nM | 6/6 | MVSQLMLWGLHAKNSIA | EAQTRLN | QQYDRLPLI | En_Gen |
| 5.9 nM | 6/6 | KLSLGLGVQKQVEYNIA | NERLKIA | QQYDRLPLT | En_Gibbs |
| 1.9 nM | 6/6 | KVSLSVLLESRNVNAVA | EASTRES | QQYHRLPLS | GP_Gibbs |
| 380 pM | 6/6 | KLSQSWLYEERNKNNVA | SASQREM | QQYHRLPLS | GP_Gibbs |
| 15 nM | 1/6 | KSSQSVDYESQNKNSVN | WASTRES | QTYHRLPLS | Ctrl |
| 21 nM | 6/6 | KIGGVTNGISRNKSSVA | EQSTRED | QQYNRLPLS | En_HC |
| 40 nM | 6/6 | KSSQSFLSESRNKNSVA | WASTRES | QQYHRLPLS | Ctrl |
| nd | 0/6 | KSSQSVLYESRNFNSVA | FASTRES | QQHHRLPLS | Ctrl |
| 130 nM | 6/6 | KVSEFMRGLMKKTDSIA | DNETRGA | QQYDRLPLS | En_Gen |
| 8.0 nM | 6/6 | KLYAVTMLESHDKNSIA | DLSTRGN | QQYHRLPLS | En_HC |
| 130 nM | 6/6 | KSSVNVLAESRNKNSVA | WASQRES | QQYHRLPLS | Ctrl |
| 2.6 nM | 6/6 | HMNKFMSEIGGARNSIA | GADTLAQ | QHYHRLPLS | En_Gibbs |
| 320 pM | 6/6 | KLSQSVLFESRNKNSVA | NASTRES | QQYHRLPLS | GP_HC |
| 770 pM | 6/6 | KQSQLVLFESRNKNSVA | DASTRES | QQYHRLPLS | GP_HC |
| 630 pM | 6/6 | KVSQSVLYESRNKNSVA | NASTRES | QQYHRLPLH | GP_Gen |
| 14 nM | 6/6 | MLTISGDETHEKAFSIA | NATNKAY | QQYARLPLT | En_Gibbs |
| 43 nM | 6/6 | IIDQIMYHGNKHVNSIA | QASQRLN | QQYHHLPLF | En_Gen |
| 6.8 nM | 6/6 | SLMQVGGYESNNHNSIA | DLRTREN | QQYHRLPLS | En_HC |
| 11 nM | 6/6 | TISGIMQQMSHSKNNVA | EVSMRLD | QQYFRLPLE | En_Gen |
| 4.3 nM | 6/6 | KSSQSVLYESRNKNSVA | SASTRET | QQYHRLPLS | Ctrl |
| 480 pM | 6/6 | KSSQSWLYESRNKNSVA | EASTREN | QQYHRLPLS | GP_HC |
| 160 nM | 1/6 | KSSISYLYESVNKNSVA | EASQRES | QQYHRLPLS | GP_HC |
| 5.0 nM | 6/6 | TISQMSQLFSQTINNVA | EVSTRLN | QQYDRLPLV | En_Gen |
| nd | 0/6 | MLENKPTSFNNNKDAIA | DDEASTS | QQYDRLPLS | En_Gibbs |
| nd | 0/6 | KSVQSVLYESRNKNSVA | WASTRES | QQYHRLPLS | Ctrl |

Again, the first 4 entries without any signal:

| CDR-L1 | CDR-L2 | CDR-L3 | group | Kd | detected |
|---|---|---|---|---|---|
| MSSQAVLNESRNKNSVA | WASTREA | QQYHRLPLS | Ctrl | nd | 0/6 |
| KIHCRELWYQGQINNIA | EAAKLVE | QQYALLPLA | En_Gibbs | nd | 0/6 |
| KSSQSVLGESRNKTSVA | WASTRES | QQYHRLPLS | Ctrl | nd | 0/6 |
| KSSQSVLYESNNKNAVA | WASTRES | QQGHRLPLS | Ctrl | nd | 0/6 |